Data set [1] can be described thus: Tissue/plasma ratio of the antagonistic compound in stomach.
The nature of data set [2]: Tissue/plasma ratio of the antagonistic compound in presence of atropine in trachea.
Data set [3] in a line: Tissue/plasma ratio of the antagonistic compound in trachea.
Data set [4] in a line: Tissue/plasma ratio of the antagonistic compound in presence of atropine in spleen.
A short description of data set [5]: Tissue/plasma ratio of the antagonistic compound in lung.
The nature of data set [6]: Tissue/plasma ratio of the antagonistic compound in intestine.
Data set [7] can be described thus: Tissue/plasma ratio of the antagonistic compound in presence of atropine in stomach.
Data set [8] in a line: Tissue/plasma ratio of the antagonistic compound in presence of atropine in submandibular gland.
Data set [9] can be described thus: Tissue/plasma ratio of the antagonistic compound in pancreas.
A short description of data set [10]: Tissue/plasma ratio of the antagonistic compound in presence of atropine in intestine.
Data set [11] in a line: Tissue/plasma ratio of the antagonistic compound in presence of atropine in pancreas.
Data set [12] in a line: Tissue/plasma ratio of the antagonistic compound in presence of atropine in lung.
Data set [13] is described as follows: Tissue/plasma ratio of the antagonistic compound in submandibular gland.
A short description of data set [14]: Tissue/plasma ratio of the antagonistic compound in heart.
Data set [15] can be described thus: Tissue/plasma ratio of the antagonistic compound in presence of atropine in heart.
Data set [16] is described as follows: Tissue/plasma ratio of the antagonistic compound in spleen.

The structures appear in SMILES notation.

With `C[N+]1(C)CCC(OC(=O)[C@](O)(c2ccccc2)C2CCCCC2)CC1.[I-]`, the Ratio in [1] came out at 24.7; in [2] it was 1.6; in data set [3], 8; in data set [4] it was 0.6; in data set [5] it was 10.1; in data set [6] it was 47.2. The Ratio in [7] worked out at 1.2; in data set [8], 1.3; in [9], 28.8; in [10], 5.3; in [11] it was 1.9; in [12] it was 0.6. Moreover, the Ratio was determined as 26.3 in data set [13], 118 in data set [14], 0.6 in data set [15] and 11 in data set [16].
Take `C[N+]1(C)CCC(OC(=O)C(O)(c2ccccc2)C2CCCCC2)CC1.[I-]` (racemic): the Ratio in data set [1] stood at 11.6; in data set [2], 2.1; in data set [3], 4; in [4], 1.8; in [5] it was 4.8; in data set [6], 33. Besides, the Ratio in data set [7] turned out to be 3; in data set [8] it was 1.6; in [9] it was 14.2; in [10], 8.7; in [11], 2.3; in [12] it was 1.1. The Ratio stood at 12.1 in data set [13], 61.1 in data set [14], 1.3 in [15] and 6.3 in [16].

Source of the values: ChEMBL document CHEMBL1130012 (J Med Chem, 1997).
